Laboratory results from ChEMBL document CHEMBL1135544, “Design, synthesis, and biological activity of hybrid compounds between uramustine and DNA minor groove binder distamycin A” (J Med Chem, 2002).

Tested on: K562
Experiment: In vitro antitumor activity against human chronic myeloid leukemia K562 cell line

Row | Compound | IC50 [µM]
1 | O=C(O)CCn1cc(N(CCCl)CCCl)c(=O)[nH]c1=O | > 100
2 | O=C(O)Cn1cc(N(CCCl)CCCl)c(=O)[nH]c1=O | 33.5
